Data reported in BindingDB's records for patent US9540388 (Janssen Pharmaceutica NV, 2017).

Sequences of proteins named here, by UniProt entry; tags and fusion partners are left off. A change or cut given only in a name is not applied to a line headed by its entry.
UniProt Q99572: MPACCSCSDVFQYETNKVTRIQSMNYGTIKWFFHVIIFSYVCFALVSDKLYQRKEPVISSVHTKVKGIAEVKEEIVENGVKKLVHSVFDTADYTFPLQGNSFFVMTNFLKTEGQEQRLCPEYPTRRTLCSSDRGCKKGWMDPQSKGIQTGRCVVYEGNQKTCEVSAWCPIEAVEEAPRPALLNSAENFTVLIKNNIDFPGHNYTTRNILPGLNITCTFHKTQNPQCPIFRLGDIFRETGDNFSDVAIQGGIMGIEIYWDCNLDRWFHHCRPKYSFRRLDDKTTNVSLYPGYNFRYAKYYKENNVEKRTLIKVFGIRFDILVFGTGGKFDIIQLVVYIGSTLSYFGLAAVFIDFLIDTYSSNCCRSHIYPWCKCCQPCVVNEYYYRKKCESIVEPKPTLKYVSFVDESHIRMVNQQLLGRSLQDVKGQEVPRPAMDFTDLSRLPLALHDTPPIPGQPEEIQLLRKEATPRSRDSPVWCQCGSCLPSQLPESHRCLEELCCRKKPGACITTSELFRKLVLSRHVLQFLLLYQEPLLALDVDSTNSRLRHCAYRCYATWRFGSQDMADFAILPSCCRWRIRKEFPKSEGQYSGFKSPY

What was measured:
[1] = biological target: T1, P2X purinoceptor 7 (Rattus norvegicus, UniProt Q64663); assay: Radioligand Binding Assay
T1 sequence (Q64663 whole entry): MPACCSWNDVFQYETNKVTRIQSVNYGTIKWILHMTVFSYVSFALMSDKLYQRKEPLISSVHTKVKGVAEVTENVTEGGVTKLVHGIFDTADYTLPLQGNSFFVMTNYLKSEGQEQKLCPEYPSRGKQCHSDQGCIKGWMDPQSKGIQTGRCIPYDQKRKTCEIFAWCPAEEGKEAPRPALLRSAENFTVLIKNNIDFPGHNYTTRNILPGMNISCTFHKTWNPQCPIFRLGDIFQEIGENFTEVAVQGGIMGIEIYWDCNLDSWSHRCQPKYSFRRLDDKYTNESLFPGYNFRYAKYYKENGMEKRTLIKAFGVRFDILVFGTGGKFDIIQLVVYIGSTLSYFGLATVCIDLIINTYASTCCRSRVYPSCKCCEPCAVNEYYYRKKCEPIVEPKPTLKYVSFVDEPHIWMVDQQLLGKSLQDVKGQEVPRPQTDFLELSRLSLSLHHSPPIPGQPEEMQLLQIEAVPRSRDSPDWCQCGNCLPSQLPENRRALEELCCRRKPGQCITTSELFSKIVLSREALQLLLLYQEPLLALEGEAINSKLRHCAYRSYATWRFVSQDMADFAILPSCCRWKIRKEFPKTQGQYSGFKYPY
Method: (§1) human or rat P2X7-1321N1 cells were collected and frozen @−80° C. On the day of the experiment, cell membrane preparations were made according to standard published methods. The total assay volume was 100 μl:10 μl compound (10×)+(b) 40 μl tracer (2.5×)+50 μl membrane (2×). The tracer used for the assay was tritiated A-804598. The compound can be prepared as described in the literature. […] The assay was terminated by filtration (GF/B filters pre-soaked with 0.3% PEI) and washed with washing buffer (Tris-HCl 50 mM). The IC50 generated in the binding assay was corrected for tracer concentration and affinity of the tracer to derive at the affinity (Ki) of the test compounds.

[2] = biological target: P2X purinoceptor 7 (Homo sapiens, UniProt Q99572); assay: Radioligand Binding Assay
Method: as §1

Row | Structure (SMILES) | IC50 [1] | IC50 [2]
1 | O=C(c1cccc(C(F)(F)F)c1Cl)N1[C@@H]2CCC[C@H]1c1nnc(-c3ccc(F)cn3)n1C2 (single isomer, unassigned) [US9540388, 12] | 14800 nM | –
2 | O=C(c1ccnc(C(F)(F)F)c1Cl)N1[C@@H]2CCC[C@H]1c1nnc(-c3cccs3)n1C2 (single isomer, unassigned) [US9540388, 36] | – | 11 nM
3 | O=C(c1cccc(C(F)(F)F)c1Cl)N1C2CCCC1c1nnc(-c3ncccn3)n1C2 (stereo not drawn) [US9540388, 1] | – | 50 nM
